Reference: patent US20220145260A1, “METHOD FOR CULTURING HEPATIC EPITHELIOID TISSUE HAVING A STRUCTURE OF CONNECTIONS BETWEEN HEPATOCYTES AND BILE DUCT EPITHELIAL CELL” (SAPPORO MEDICAL UNIVERSITY, priority 2019, published 2022)

Tested on: hepatic epithelioid tissue (small hepatocytes and bile duct epithelial cells)
Assay: Transportation of bile acid analog CLF from hepatocytes to the bile duct
Type: cell-based, mice
Details: after 30 minutes; 1 month after overlaying gel

cholyl lysine fluorescein [CLF]
uptake by hepatocytes and excretion into the bile canaliculus: taken up by hepatocytes and excreted into the bile canaliculus
